# Assay results published in paper PMC3501270 (Bioorganic & medicinal chemistry, 2012).
# Protein sequences, listed by entry. Tags and fused reporters are not part of them. Residues count along the entry.
# UniProt Q99835, 28-787 D473H: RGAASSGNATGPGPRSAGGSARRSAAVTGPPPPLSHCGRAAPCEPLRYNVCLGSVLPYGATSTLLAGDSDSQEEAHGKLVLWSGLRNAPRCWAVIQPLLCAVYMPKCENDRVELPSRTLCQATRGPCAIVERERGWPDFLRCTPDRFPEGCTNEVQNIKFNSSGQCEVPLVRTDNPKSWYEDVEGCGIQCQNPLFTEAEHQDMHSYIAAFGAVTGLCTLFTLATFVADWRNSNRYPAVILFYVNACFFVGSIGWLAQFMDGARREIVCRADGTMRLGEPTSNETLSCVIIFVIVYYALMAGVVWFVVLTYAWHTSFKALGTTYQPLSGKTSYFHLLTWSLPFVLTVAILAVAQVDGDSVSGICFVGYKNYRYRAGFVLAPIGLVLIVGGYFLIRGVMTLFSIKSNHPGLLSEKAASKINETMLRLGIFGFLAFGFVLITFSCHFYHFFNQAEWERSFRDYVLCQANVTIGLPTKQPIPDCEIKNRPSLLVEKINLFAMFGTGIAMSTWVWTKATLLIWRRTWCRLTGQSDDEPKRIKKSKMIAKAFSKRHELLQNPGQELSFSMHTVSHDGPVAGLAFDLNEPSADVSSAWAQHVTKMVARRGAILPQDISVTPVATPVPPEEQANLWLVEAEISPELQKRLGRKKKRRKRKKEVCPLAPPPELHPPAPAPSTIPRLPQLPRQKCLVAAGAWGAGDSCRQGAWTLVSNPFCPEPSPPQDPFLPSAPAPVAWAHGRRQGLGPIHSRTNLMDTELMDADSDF
# Molecular target: mutant SmoD473H receptor (Homo sapiens, UniProt Q99835, D473H)
# Assay: [3H]-cyclopamine saturation binding to Smo-D473H in U2OS cells
# Conditions: read-out: Kd for mutant SmoD473H receptor, U2OS cells overexpressing Smo-D473H
substance,measurement,value
[^3H]-cyclopamine [^3[H]-cyclopamine],Kd,116 ± 21 nM
